The record followed here is US6140333A, “N-acyl cyclic amine derivatives” (priority 1998, dated 2000).

Protein sequences, listed by entry. Tags and fused reporters are not part of them.
UniProt P08172, whole entry: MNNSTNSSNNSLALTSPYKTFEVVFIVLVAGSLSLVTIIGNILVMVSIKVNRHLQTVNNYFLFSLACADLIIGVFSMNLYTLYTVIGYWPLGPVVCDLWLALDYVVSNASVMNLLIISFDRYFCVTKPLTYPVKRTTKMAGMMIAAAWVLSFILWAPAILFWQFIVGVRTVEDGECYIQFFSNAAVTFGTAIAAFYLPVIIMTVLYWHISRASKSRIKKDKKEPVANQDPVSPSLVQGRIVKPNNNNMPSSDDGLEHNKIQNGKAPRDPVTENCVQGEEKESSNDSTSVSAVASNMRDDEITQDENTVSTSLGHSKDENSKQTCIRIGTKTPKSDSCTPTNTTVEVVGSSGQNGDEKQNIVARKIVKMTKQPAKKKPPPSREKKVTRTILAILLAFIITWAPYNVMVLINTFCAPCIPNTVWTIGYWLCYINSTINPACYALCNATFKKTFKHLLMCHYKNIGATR
UniProt P20309, whole entry: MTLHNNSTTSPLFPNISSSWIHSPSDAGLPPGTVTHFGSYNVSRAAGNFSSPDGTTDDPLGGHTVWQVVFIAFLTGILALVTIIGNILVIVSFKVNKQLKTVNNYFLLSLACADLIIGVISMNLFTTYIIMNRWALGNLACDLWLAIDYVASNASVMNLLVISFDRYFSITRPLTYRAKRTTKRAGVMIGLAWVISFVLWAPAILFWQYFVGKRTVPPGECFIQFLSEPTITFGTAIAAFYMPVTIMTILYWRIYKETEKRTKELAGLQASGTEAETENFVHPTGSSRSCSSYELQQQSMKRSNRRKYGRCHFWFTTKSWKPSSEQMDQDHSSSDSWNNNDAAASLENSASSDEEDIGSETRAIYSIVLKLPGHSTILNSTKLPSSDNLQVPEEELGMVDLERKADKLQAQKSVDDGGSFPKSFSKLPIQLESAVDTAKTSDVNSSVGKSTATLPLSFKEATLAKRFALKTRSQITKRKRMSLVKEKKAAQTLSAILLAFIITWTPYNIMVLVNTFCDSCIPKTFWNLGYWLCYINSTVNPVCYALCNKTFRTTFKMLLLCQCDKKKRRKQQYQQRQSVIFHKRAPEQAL

For assay [1], the target named is T1, m2 muscarinic acetylcholine receptor (Homo sapiens, UniProt P08172).
T1 construct: purchased Receptor Biology Inc; host or cells: CHO cells
The assay is classed as binding. Particulars: CHO cells expressing m2; 0.2 nM [3H]-N-methylscopolamine, pH 7.4, 120 min, room temperature. As for the experimental part: (§1) These tests were performed according to a modification of the method of Hargreaves et al. (Br. J. Pharmacol. 107: pp. 494-501, 1992). Thus, CHO cells expressing m2 and m3 muscarinic acetylcholine receptors (Receptor Biology Inc.) were incubated with 0.2 nM [^3 H]-N-methylscopolamine (84Ci/mmol, New England Nuclear, Inc.) and each compound of the present invention to be tested in 0.5 ml of 50 mM tris-HCl--10 mM MgCl2 --1 mM EDTA (pH 7.4) for 120 minutes at room temperature (about 20 to 25° C.), followed by suction filtration with a glass filter (Uni-Filter plate GF/C; Packard Instruments Co., Ind.) and washing four times with 1 ml of ice-cold Tris-HCl buffer. After the filter was dried for 1 hour at 50° C., a scintillator (Miroscinti 0; Packard Instruments Co., Inc.) was added, and the radioactivity of [^3 H]-N-methylscopolamine adsorbed by the filter was counted by a liquid scintillation counter (TopCount™; Packard Instruments Co., Inc.). Non-specific binding of [^3 H]-N-methylscopolamine was measured in the presence of 1 μM N-methylscopolamine, which was added. According to the method of Cheng and Prusoff (Biochem. Pharmacol. 22: pp. 3099-3108, 1973), the binding affinity (Ki value) of the compound of the present invention for muscarinic receptors was calculated from the concentration (IC50) of the test compound which achieved 50% inhibition of the binding of [^3 H]-N-methylscopolamine, labeled ligand.

Assay [2] addresses T2, m3 muscarinic acetylcholine receptor (Homo sapiens, UniProt P20309).
T2 construct: purchased Receptor Biology Inc; host or cells: CHO cells
The class given is binding. As for the experimental part:
as §1

What is called Ki is the equilibrium dissociation constant of an inhibitor or competing ligand from its target. As for `NCCC1CCN(C(=O)[C@](O)(c2ccccc2)[C@@H]2CCC(F)(F)C2)CC1` [Example 13, 4-(2-Aminoethyl)-1-{(2R)-2-((1R)-3,3-difluorocyclopentyl)-2-hydroxy-2-phenylacetyl}piperidine], the Ki stood at 630 nM in assay [1] and 3.7 nM in assay [2] (CHO cells expressing m3, 0.2 nM [3H]-N-methylscopolamine, pH 7.4, 120 min, room temperature). Besides, in assay [2] (selectivity m2 over m3, binding), the “m2/m3 (ratio of Ki)” value is recorded as 170.
